# Measured affinities in a library of Ab-14 heavy chain variants

All variants were tested on one target, the spike HR2 peptide PDVDLGDISGINAS (SARS-CoV-2).

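The starting antibody came from a phage panning campaign against this peptide. This is the validation round: designs drawn from the data on random variants, tested in the same kind of assay. Their group label is 14H_En_HC (En: ensemble of fine-tuned language models; HC: hill climbing; a sequence that several methods proposed may carry one label only). The assay is AlphaSeq: two haploid yeast populations carry antibody and antigen on their surface. Pairs that bind mate more often; barcode pairs of the diploids are counted by sequencing. Scores were corrected for input abundance and mapped to Kd with protein pairs of known affinity run in the same pool. The assay was run in six technical replicates.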

The variants keep the light chain, the linker and the frameworks of Ab-14 (scFv order VH, a 15-residue (Gly4Ser)3 linker, VL).
VH: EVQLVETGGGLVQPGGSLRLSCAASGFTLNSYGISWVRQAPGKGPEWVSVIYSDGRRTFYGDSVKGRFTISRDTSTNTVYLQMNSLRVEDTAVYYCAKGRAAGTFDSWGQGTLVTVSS
VL: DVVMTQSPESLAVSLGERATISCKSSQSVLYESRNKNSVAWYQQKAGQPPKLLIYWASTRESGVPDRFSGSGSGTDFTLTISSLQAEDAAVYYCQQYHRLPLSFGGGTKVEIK

The parent's heavy chain CDRs are GFTLNSYGIS, VIYSDGRRTFYGDSVK, GRAAGTFDS; each variant's own CDRs replace them letter for letter. The read-out is the apparent dissociation constant on a log10 scale (nM): the lower, the stronger. Replicates are averaged; those with no signal do not enter the mean. Where no diploid with the target was found in that replicate, the entry reads "nd": below detection, most likely a poor binder, though not proof of it. In the paper, a design with two or fewer of six values counts as a poor binder.

CDR-H1,CDR-H2,CDR-H3,log10 Kd (nM) by replicate,"log10 Kd (nM), mean",signal with controls
GFDLNEYGIS,VIYADGRRTYYADSVK,GEEAGTFNM,-0.30 / -0.38 / -0.81 / -0.70 / -0.58 / -0.56,-0.56,0 of 18
GFDLDEYGIS,VIYADGMRTFYADSVK,GENAGTFDA,-0.55 / -0.32 / -0.25 / -0.11 / 0.40 / -0.01,-0.14,0 of 18
GFDLNEYGIS,VIYADGRRTFYSDSVK,GQLAGTFDD,-0.16 / -0.63 / -0.47 / -0.49 / -0.38 / -0.35,-0.41,0 of 18
GFQLDEYGIS,VIYADGMRTFYADSVK,GEVAGTFDV,0.77 / 0.29 / -1.07 / -0.47 / -0.36 / -0.21,-0.17,0 of 18
GFDLNEYGIS,VIYADGRRTFYVDSVK,GNNAGTFDS,-0.15 / -0.52 / -0.96 / -0.49 / -0.69 / -0.43,-0.54,0 of 18
GFDLNEYGIS,VIYADGQRTFYTDSVK,GANAGTFDV,-0.49 / -0.71 / -0.55 / -0.69 / -0.78 / -0.50,-0.62,0 of 18
GFNLNEYGIS,VIYADGRRTFYADSVK,GQIAGTFTV,0.11 / -1.30 / 0.32 / -0.15 / nd / -0.04,-0.21,0 of 18
GFDLNDYGIS,VIYADGMRTAYIDSVK,GEVAGTFDS,-0.23 / -0.44 / -0.54 / -0.77 / -0.31 / -0.18,-0.41,0 of 18
GFDLNEYGIS,VIYADGQRTAYADSVK,GKAAGTFDM,-0.48 / -0.45 / -0.57 / -0.46 / -0.38 / -0.31,-0.44,0 of 18
GFDLNEYGIS,VIYADGVRTFYTDSVK,GEVAGTFDS,0.06 / -0.13 / -0.07 / 0.22 / 0.06 / 0.29,0.07,0 of 18
GFDLNEYGIS,VIYADGMRTFYSDSVK,GQTAGTFDV,-0.28 / -0.49 / -0.50 / -0.98 / -0.71 / -0.40,-0.56,0 of 18
GFDLNEYGIS,VIYADGRRTFYSDSVK,GSVAGTFDS,-0.69 / -0.24 / -0.75 / -0.54 / -0.94 / -0.36,-0.59,0 of 18
GFDLNEYGIS,VIYADGRRTFYADSVK,GEQAGTFDI,0.32 / 0.99 / 1.10 / 0.75 / 0.77 / 0.51,0.74,0 of 18
GFNLNEYGIS,VIYADGMRSFYSDSVK,GEAAGTFDV,-0.69 / -0.28 / -0.17 / -0.36 / -0.46 / -0.17,-0.35,0 of 18
GFDLNEYGIS,VIYADGRRTFYSDSVK,GQTAGTFDS,-0.16 / 0.11 / -0.30 / -0.40 / -0.21 / -0.08,-0.17,0 of 18
GFDLNEYGIS,VIYADGRRTFYADSVK,GNQAGTFVS,0.64 / -0.28 / nd / -0.57 / -0.13 / -0.30,-0.13,0 of 18
GFDLNEYGIS,VIYADGMRTQYIDSVK,GNAAGTFDE,nd / nd / nd / nd / nd / nd,nd,0 of 18
GFDLNEYGIS,VIYADGVRTAYIDSVK,GEVAGTFDA,-0.27 / -0.68 / -0.49 / 0.08 / -0.66 / -0.11,-0.35,0 of 18
GFDLNEYGIS,VIYADGRRTAYGDSVK,GEVAGTFDQ,0.43 / -0.93 / -0.53 / -0.98 / -0.98 / -0.61,-0.60,0 of 18
GFDLDEYGIS,VIYADGRRTFYSDSVK,GEVAGTFDI,-0.20 / -0.18 / -1.05 / -0.49 / -0.57 / -0.61,-0.52,0 of 18
GFDLEEYGIS,VIYADGSRTAYADSVK,GNVAGTFNS,0.02 / -0.36 / -0.65 / -0.78 / -0.40 / -0.61,-0.46,0 of 18
GFDLNEYGIS,VIYADGRRTFYVDSVK,GNLAGTFDQ,-1.03 / -0.56 / 0.05 / -1.14 / -0.45 / -0.92,-0.68,0 of 18
GFDLNEYGIS,VIYADGRRTFYSDSVK,GAVAGTFDQ,-0.48 / -0.73 / -0.96 / -1.16 / -0.61 / -0.64,-0.76,0 of 18
GFDLNEYGIS,VIYADGRRTFYADSVK,GHVAGTFVE,-0.29 / -0.26 / -0.35 / -0.60 / -0.44 / -0.23,-0.36,1 of 18 (2.89)
GFSLDEYGIS,VIYADGRRTFYADSVK,GNHAGTFDS,nd / -0.40 / 0.29 / 0.47 / 0.83 / -0.68,0.10,0 of 18
GFDLNEYGIS,VIYADGRRKAYADSVK,GNTAGTFDV,0.89 / 0.91 / 0.53 / 0.48 / 2.18 / 0.39,0.90,0 of 18
GFNLDEYGIS,VIYADGRRTFYADSVK,GTHAGTFDT,-0.35 / -0.77 / -0.90 / -1.38 / -0.81 / -0.50,-0.79,0 of 18
GFDLNEYGIS,VIYADGRRTFYADSVK,GEHAGTFDI,-0.44 / -0.41 / -0.53 / -0.14 / -0.38 / -0.27,-0.36,1 of 18 (0.76)
GFDLEDYGIS,VIYADGMRTFYADSVK,GNVAGTFDS,-0.24 / -0.23 / -0.41 / -0.22 / -0.43 / -0.39,-0.32,1 of 18 (2.88)
GFDLNEYGIS,VIYADGRRTAYADKVK,GENAGTFDI,-0.37 / 0.04 / -0.98 / -0.12 / -0.48 / 0.05,-0.31,0 of 18
GFDLNEYGIS,VIYADGRRTAYTDSVK,GSNAGTFDQ,0.43 / -0.01 / -0.27 / -0.05 / -0.01 / 0.22,0.05,0 of 18
GFDLDEYGIS,VIYADGRRTFYVDSVK,GNVAGTFDV,0.99 / 1.03 / 0.39 / -0.01 / 0.80 / 1.32,0.75,0 of 18
GFDLNEYGIS,VIYADGSRTFYSDSVK,GQTAGTFDM,-0.28 / 0.17 / -0.19 / -0.32 / -0.39 / 0.24,-0.13,0 of 18
GFDLNEYGIS,VIYADGRRTAYADSVK,GEHAGTFDI,2.27 / 1.80 / 2.22 / 3.70 / 1.59 / 2.84,2.40,0 of 18
GFDLDEYGIS,VIYADGRRTFYSDSVK,GSNAGTFDV,0.19 / 0.28 / 0.19 / -0.16 / 0.13 / 0.17,0.13,0 of 18
GFDLNEYGIS,VIYADGRRTFYADSVK,GENGGTFDV,-0.52 / -0.13 / -0.47 / 0.09 / -0.10 / -0.33,-0.25,0 of 18
GFDLEEYGIS,VIYADGSRTFYSDSVK,GEAAGTFDM,0.99 / 1.01 / 0.41 / -0.07 / 0.88 / 0.40,0.60,1 of 18 (0.99)
GFDLNEYGIS,VIYADGMRTFYTDNVK,GQNAGTFDS,-0.17 / -0.87 / -0.77 / -0.85 / -0.94 / -0.41,-0.67,0 of 18
GFDLNEYGIS,VIYADGRRTAYTDSVK,GQVAGTFDS,-0.22 / -0.41 / -0.51 / -0.85 / -0.82 / -0.32,-0.52,0 of 18
GFDLNEYGIS,VIYADGRRTFYADSVK,GSEAGTFNI,-0.52 / -0.30 / -0.75 / -0.55 / -0.54 / -0.61,-0.55,0 of 18
GFDLNEYGIS,VIYADGRRTAYIDSVK,GEVAGTFDA,-0.59 / -0.09 / -0.51 / -0.35 / -0.31 / -0.21,-0.34,0 of 18
GFDLEDYGIS,VIYADGRRTAYIDSVK,GNVAGTFDV,-0.34 / -0.23 / -0.72 / -0.28 / -0.57 / -0.30,-0.41,0 of 18
GFNLDEYGIS,VIYADGRRTFYSDSVK,GSTAGTFDV,-0.63 / -0.95 / -0.82 / -0.76 / -0.78 / -0.57,-0.75,0 of 18
GFTLDEYGIS,VIYADGRRTFYSDSVK,GNTAGTFDV,-0.46 / -0.42 / -0.48 / -0.95 / -0.61 / -0.49,-0.57,0 of 18
GFDLNEYGIS,VIYADGMRTAYTDSVK,GNEAGTFDS,0.35 / -0.24 / -0.24 / -0.73 / -0.59 / 0.38,-0.18,0 of 18
GFDLNEYGIS,VIYADGRRTFYSDSVK,GEIAGTFVS,0.54 / nd / 0.20 / 0.46 / 1.01 / 1.25,0.69,0 of 18
GFNLNEYGIS,VIYADGRRTFYADSVK,GDAAGTFDV,-0.28 / -0.03 / -0.48 / -0.78 / -0.57 / -0.34,-0.41,0 of 18

Of ten entries with the parent sequence, four were seen in most replicates (averages 0.34 to 2.37), three in one and three in none, so single entries are noisy. Background: pairings of all heavy chain designs with three empty control strains gave a value in 1% of cases (median 2.08, 5th percentile 0.84). Values in that range, when seen in few replicates, are hard to tell from nonspecific mating. For each scFv, signals with the empty controls are counted beside the result, with their mean in brackets. Values of this round are not directly comparable with the first-round values of the same sequences.

The measurements come from Li et al. 2023 (doi:10.1038/s41467-023-39022-2) through the FLAb antibody collection.